CycPeptMPDB entries from one study

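Lipid, pH, incubation time, direction and concentration are not recorded in the data file. The list need not hold all peptides of the study. Entries at the database's floor value (log10 P of -10) are not listed.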

PAMPA is the parallel artificial membrane permeability assay, which has no cells and reads passive diffusion.
Permeability is given as log10 of P in cm/s; higher (less negative) is more permeable.

{"smiles": "CC(=O)N1CCC[C@H]1C(=O)N[C@@H]1C(=O)N(C)[C@H](CC(C)C)C(=O)N[C@H](CC(C)C)C(=O)N[C@H](CC(C)C)C(=O)N[C@@H](CC(C)C)C(=O)N(C)[C@H](C)C(=O)N[C@@H](CC(C)C)C(=O)N2CCC[C@@H]2C(=O)O[C@@H]1C", "PAMPA (log10 cm/s)": "-6.50"}
{"smiles": "CC(=O)N1CCC[C@@H]1C(=O)N(C)[C@@H](CC(C)C)C(=O)N[C@@H]1C(=O)N[C@H](CC(C)C)C(=O)N[C@H](CC(C)C)C(=O)N[C@H](CC(C)C)C(=O)N[C@@H](C)C(=O)N[C@H](CC(C)C)C(=O)N2CCC[C@H]2C(=O)O[C@@H]1C", "PAMPA (log10 cm/s)": "-6.64"}
{"smiles": "CC(=O)N[C@@H]1C(=O)N2CCC[C@H]2C(=O)N(C)[C@H](CC(C)C)C(=O)N[C@H](CC(C)C)C(=O)N[C@H](CC(C)C)C(=O)N[C@@H](CC(C)C)C(=O)N(C)[C@H](C)C(=O)N[C@@H](CC(C)C)C(=O)N2CCC[C@@H]2C(=O)O[C@@H]1C", "PAMPA (log10 cm/s)": "-6.80"}
{"smiles": "CC(=O)N1CCC[C@@H]1C(=O)N(C)[C@@H](CC(C)C)C(=O)N[C@@H]1C(=O)N[C@@H](CC(C)C)C(=O)N[C@@H](CC(C)C)C(=O)N(C)[C@@H](CC(C)C)C(=O)N(C)[C@H](C)C(=O)N[C@H](CC(C)C)C(=O)N2CCC[C@H]2C(=O)O[C@@H]1C", "PAMPA (log10 cm/s)": "-6.18"}
{"smiles": "CC(=O)N1CCC[C@@H]1C(=O)N(C)[C@@H](CC(C)C)C(=O)N[C@@H]1C(=O)N[C@@H](CC(C)C)C(=O)N[C@H](CC(C)C)C(=O)N(C)[C@H](CC(C)C)C(=O)N[C@@H](C)C(=O)N[C@@H](CC(C)C)C(=O)N2CCC[C@@H]2C(=O)O[C@@H]1C", "PAMPA (log10 cm/s)": "-5.87"}
{"smiles": "CC(=O)N1CCC[C@H]1C(=O)N(C)[C@H](CC(C)C)C(=O)N[C@@H]1C(=O)N[C@@H](CC(C)C)C(=O)N[C@H](CC(C)C)C(=O)N[C@H](CC(C)C)C(=O)N(C)[C@H](C)C(=O)N[C@H](CC(C)C)C(=O)N2CCC[C@@H]2C(=O)O[C@@H]1C", "PAMPA (log10 cm/s)": "-6.73"}
{"smiles": "CC(=O)N1CCC[C@@H]1C(=O)N(C)[C@@H](CC(C)C)C(=O)N[C@@H]1C(=O)N(C)[C@H](CC(C)C)C(=O)N(C)[C@H](CC(C)C)C(=O)N(C)[C@@H](CC(C)C)C(=O)N(C)[C@H](C)C(=O)N[C@@H](CC(C)C)C(=O)N2CCC[C@H]2C(=O)O[C@@H]1C", "PAMPA (log10 cm/s)": "-5.17"}
{"smiles": "CC(=O)N1CCC[C@H]1C(=O)N(C)[C@@H](CC(C)C)C(=O)N[C@@H]1C(=O)N(C)[C@H](CC(C)C)C(=O)N(C)[C@@H](CC(C)C)C(=O)N(C)[C@@H](CC(C)C)C(=O)N(C)[C@H](C)C(=O)N[C@H](CC(C)C)C(=O)N2CCC[C@H]2C(=O)O[C@@H]1C", "PAMPA (log10 cm/s)": "-5.41"}
{"smiles": "CC(=O)N1CCC[C@@H]1C(=O)N(C)[C@H](CC(C)C)C(=O)N[C@@H]1C(=O)N(C)[C@@H](CC(C)C)C(=O)N[C@@H](CC(C)C)C(=O)N(C)[C@@H](CC(C)C)C(=O)N(C)[C@@H](C)C(=O)N[C@@H](CC(C)C)C(=O)N2CCC[C@@H]2C(=O)O[C@@H]1C", "PAMPA (log10 cm/s)": "-5.43"}
{"smiles": "CC(=O)N1CCC[C@@H]1C(=O)N(C)[C@H](CC(C)C)C(=O)N[C@@H]1C(=O)N(C)[C@H](CC(C)C)C(=O)N[C@@H](CC(C)C)C(=O)N(C)[C@@H](CC(C)C)C(=O)N(C)[C@@H](C)C(=O)N[C@@H](CC(C)C)C(=O)N2CCC[C@H]2C(=O)O[C@@H]1C", "PAMPA (log10 cm/s)": "-5.51"}
{"smiles": "CC(=O)N1CCC[C@@H]1C(=O)N(C)[C@H](CC(C)C)C(=O)N[C@@H]1C(=O)N[C@@H](CC(C)C)C(=O)N(C)[C@H](CC(C)C)C(=O)N(C)[C@@H](CC(C)C)C(=O)N(C)[C@@H](C)C(=O)N[C@@H](CC(C)C)C(=O)N2CCC[C@H]2C(=O)O[C@@H]1C", "PAMPA (log10 cm/s)": "-5.86"}
{"smiles": "CC(=O)N1CCC[C@@H]1C(=O)N(C)[C@@H](CC(C)C)C(=O)N[C@@H]1C(=O)N(C)[C@@H](CC(C)C)C(=O)N(C)[C@H](CC(C)C)C(=O)N[C@H](CC(C)C)C(=O)N(C)[C@H](C)C(=O)N[C@H](CC(C)C)C(=O)N2CCC[C@H]2C(=O)O[C@@H]1C", "PAMPA (log10 cm/s)": "-5.99"}
{"smiles": "CC(=O)N1CCC[C@H]1C(=O)N(C)[C@H](CC(C)C)C(=O)N[C@@H]1C(=O)N[C@H](CC(C)C)C(=O)N[C@@H](CC(C)C)C(=O)N(C)[C@H](CC(C)C)C(=O)N(C)[C@H](C)C(=O)N[C@H](CC(C)C)C(=O)N2CCC[C@H]2C(=O)O[C@@H]1C", "PAMPA (log10 cm/s)": "-5.47"}
{"smiles": "CC(=O)N[C@@H]1C(=O)N2CCC[C@H]2C(=O)N(C)[C@H](CC(C)C)C(=O)N(C)[C@H](CC(C)C)C(=O)N(C)[C@@H](CC(C)C)C(=O)N(C)[C@H](CC(C)C)C(=O)N(C)[C@@H](C)C(=O)N[C@@H](CC(C)C)C(=O)N2CCC[C@@H]2C(=O)O[C@@H]1C", "PAMPA (log10 cm/s)": "-5.30"}
{"smiles": "CC(=O)N1CCC[C@H]1C(=O)N(C)[C@@H](CC(C)C)C(=O)N[C@@H]1C(=O)N[C@H](CC(C)C)C(=O)N(C)[C@H](CC(C)C)C(=O)N[C@H](CC(C)C)C(=O)N(C)[C@H](C)C(=O)N[C@@H](CC(C)C)C(=O)N2CCC[C@@H]2C(=O)O[C@@H]1C", "PAMPA (log10 cm/s)": "-5.29"}
{"smiles": "CC(=O)N1CCC[C@@H]1C(=O)N(C)[C@@H](CC(C)C)C(=O)N[C@@H]1C(=O)N[C@@H](CC(C)C)C(=O)N(C)[C@H](CC(C)C)C(=O)N[C@H](CC(C)C)C(=O)N[C@H](C)C(=O)N[C@@H](CC(C)C)C(=O)N2CCC[C@@H]2C(=O)O[C@@H]1C", "PAMPA (log10 cm/s)": "-5.61"}
{"smiles": "CC(=O)N1CCC[C@H]1C(=O)N(C)[C@H](CC(C)C)C(=O)N[C@@H]1C(=O)N[C@H](CC(C)C)C(=O)N[C@@H](CC(C)C)C(=O)N(C)[C@H](CC(C)C)C(=O)N(C)[C@H](C)C(=O)N[C@H](CC(C)C)C(=O)N2CCC[C@@H]2C(=O)O[C@@H]1C", "PAMPA (log10 cm/s)": "-5.77"}

The 2 lowest values of PAMPA among the entries above:

structure (SMILES)	PAMPA (log10 cm/s)
CC(=O)N[C@@H]1C(=O)N2CCC[C@H]2C(=O)N(C)[C@H](CC(C)C)C(=O)N[C@H](CC(C)C)C(=O)N[C@H](CC(C)C)C(=O)N[C@@H](CC(C)C)C(=O)N(C)[C@H](C)C(=O)N[C@@H](CC(C)C)C(=O)N2CCC[C@@H]2C(=O)O[C@@H]1C	-6.80
CC(=O)N1CCC[C@H]1C(=O)N(C)[C@H](CC(C)C)C(=O)N[C@@H]1C(=O)N[C@@H](CC(C)C)C(=O)N[C@H](CC(C)C)C(=O)N[C@H](CC(C)C)C(=O)N(C)[C@H](C)C(=O)N[C@H](CC(C)C)C(=O)N2CCC[C@@H]2C(=O)O[C@@H]1C	-6.73

Source: CycPeptMPDB (Li et al. 2023), which took these values from Kelly et al. 2021, doi:10.1021/jacs.0c06115.